Results published in patent US6413960B1, “Substituted pyrazolyl benzenesulfonamides for the treatment of asthma” (G.D. Searle & Co., priority 1993, dated 2002).

Protein sequences, listed by entry. Tags and fused reporters are not part of them. Residues count along the entry.
UniProt P23219, 24-599: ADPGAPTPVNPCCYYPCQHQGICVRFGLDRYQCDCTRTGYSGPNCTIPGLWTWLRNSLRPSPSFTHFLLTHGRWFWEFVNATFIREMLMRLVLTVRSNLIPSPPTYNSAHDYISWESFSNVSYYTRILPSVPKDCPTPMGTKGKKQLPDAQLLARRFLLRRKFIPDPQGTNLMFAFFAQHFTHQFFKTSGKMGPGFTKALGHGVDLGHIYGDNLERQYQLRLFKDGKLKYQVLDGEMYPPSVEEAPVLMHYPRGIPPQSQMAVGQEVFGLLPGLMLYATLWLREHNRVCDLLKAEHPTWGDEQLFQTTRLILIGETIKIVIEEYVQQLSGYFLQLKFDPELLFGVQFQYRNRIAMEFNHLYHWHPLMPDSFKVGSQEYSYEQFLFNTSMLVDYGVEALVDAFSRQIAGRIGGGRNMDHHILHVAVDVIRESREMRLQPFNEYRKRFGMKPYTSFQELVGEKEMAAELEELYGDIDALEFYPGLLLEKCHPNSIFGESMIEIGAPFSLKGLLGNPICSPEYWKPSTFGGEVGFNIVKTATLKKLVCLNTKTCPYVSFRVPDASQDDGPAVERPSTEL

biological target: Human COX I (Homo sapiens, UniProt P23219); test: Assay for COX I activity in vitro (PGE2 ELISA, recombinant enzyme)

Row | pIC50 | SMILES
1 | < 4.00 | CCOC(=O)C(C#N)=Cc1cc(-c2ccccc2)n(-c2ccc(S(N)(=O)=O)cc2)n1
2 | < 4.00 | NC(=O)c1cc(-c2ccc(Cl)cc2)n(-c2ccc(S(N)(=O)=O)cc2)n1
3 | < 4.00 | COC(=O)c1cc(-c2ccc(Cl)cc2)n(-c2ccc(S(N)(=O)=O)cc2)n1 [Example 85, Methyl [1-(4-aminosulfonylphenyl)-5-(4-chlorophenyl)-1H-pyrazole-3-yl]carboxylate]
4 | < 4.00 | CCOC(=O)c1cc(-c2ccc(Cl)cc2)n(-c2ccc(S(N)(=O)=O)cc2)n1 [Example 86, Ethyl [1-(4-aminosulfonylphenyl)-5-(4-chlorophenyl)-1H-pyrazole-3-yl]carboxylate]
5 | < 4.00 | NS(=O)(=O)c1ccc(-n2nc(CCCO)cc2-c2ccc(F)cc2)cc1 [Example 173, 4-[5-(4-Fluorophenyl)-3-(3-hydroxypropyl)-1H-pyrazol-1-yl]benzenesulfonamide]

Further lines, the molecule ahead of its results:

Row | SMILES | pIC50
6 | NS(=O)(=O)c1ccc(-n2nc(C(F)(F)C(F)(F)C(F)(F)F)cc2-c2ccc(Cl)cc2)cc1 | < 4.00
7 | NS(=O)(=O)c1ccc(-n2nc(C(F)(F)F)c(C3CC3)c2-c2ccccc2)cc1 | < 4.00
8 | NS(=O)(=O)c1ccc(-n2nc(C(F)(F)F)c(CO)c2-c2ccccc2)cc1 | < 4.00
9 | COc1c(Cl)cc(-c2cc(C(F)(F)F)nn2-c2ccc(S(N)(=O)=O)cc2)cc1Cl | < 4.00
10 | CCCc1cc(-c2cc(C(F)(F)F)nn2-c2ccc(S(N)(=O)=O)cc2)ccc1OC | < 4.00
11 | COc1ccc(-c2cc(C(F)(F)F)nn2-c2ccc(S(N)(=O)=O)cc2)cc1CC1CC1 | < 4.00
12 | NS(=O)(=O)c1ccc(-n2nc(C(F)F)cc2C2CCCCC2)cc1 [Example 170, 4-[5-(1-Cyclohexyl)-3-(difluoromethyl)-1H-pyrazol-1-yl]benzenesulfonamide] | < 4.00
13 | NS(=O)(=O)c1ccc(-n2nc(CCCO)cc2-c2ccccc2)cc1 [Example 172, 4-[5-Phenyl-3-(3-hydroxypropyl)-1H-pyrazol-1-yl]benzenesulfonamide] | < 4.00
14 | CN(C)C=NS(=O)(=O)c1ccc(-n2nc(C#N)c(Cl)c2-c2ccc(F)cc2)cc1 [Example 259] | < 4.00
15 | CN(C)C=NS(=O)(=O)c1ccc(-n2nc(C#N)c(Br)c2-c2ccccc2)cc1 [Example 260, 4-[4-Bromo-3-cyano-5-phenyl-1H-pyrazol-1-yl]-N-[(dimethylamino)methylene]benzenesulfonamide] | < 4.00

pIC50: −log10 of the molar value.
